{"source": "ChEMBL document CHEMBL5576053", "about": "“Nonclassical Zwitterions as a Design Principle to Reduce Lipophilicity without Impacting Permeability” (J Med Chem, 2024)", "key": {"[1]": {"experiment": "Ionization constant, pKa of compound at pH 1 to 5", "type": "physicochemical"}, "[2]": {"experiment": "Ionization constant, pKa of compound at pH 5 to 10", "type": "physicochemical"}}}
{"smiles": "CC[C@H]1NC(=O)[C@@H](NC(=O)c2ncccc2O)[C@@H](C)OC(=O)[C@H](c2ccccc2)NC(=O)[C@@H]2CC(=O)CCN2C(=O)[C@H](Cc2ccc(N(C)C)cc2)N(C)C(=O)[C@@H]2CCCN2C1=O", "note": "[PRISTINAMYCIN 1A]", "values": [{"measurement": "pKa", "setting": "[1]", "value": 1}, {"measurement": "pKa", "setting": "[2]", "value": 7.2}]}
